Measured values published in PMC2662044 (European journal of medicinal chemistry, 2008).

Chains of the proteins cited; added tags and fusions are not shown.
UniProt P22460, whole entry: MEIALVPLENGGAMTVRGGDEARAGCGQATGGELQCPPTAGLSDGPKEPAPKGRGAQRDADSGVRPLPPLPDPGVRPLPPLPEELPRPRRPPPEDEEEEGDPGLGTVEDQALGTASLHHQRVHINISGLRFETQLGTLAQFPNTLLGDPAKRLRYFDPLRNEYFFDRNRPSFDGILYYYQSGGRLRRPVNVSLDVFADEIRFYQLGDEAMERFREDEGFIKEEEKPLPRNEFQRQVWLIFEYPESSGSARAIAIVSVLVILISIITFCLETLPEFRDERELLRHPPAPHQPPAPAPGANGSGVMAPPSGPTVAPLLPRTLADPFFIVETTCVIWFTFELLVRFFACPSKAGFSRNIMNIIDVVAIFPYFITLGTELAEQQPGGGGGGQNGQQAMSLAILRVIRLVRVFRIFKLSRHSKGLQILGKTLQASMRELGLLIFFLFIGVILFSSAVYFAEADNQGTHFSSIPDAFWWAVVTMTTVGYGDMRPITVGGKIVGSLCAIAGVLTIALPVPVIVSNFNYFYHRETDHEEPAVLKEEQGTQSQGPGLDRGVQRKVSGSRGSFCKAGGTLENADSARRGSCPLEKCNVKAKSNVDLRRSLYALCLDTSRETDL

Biological target: Kv1.5 (Homo sapiens, UniProt P22460)
Assay: Kv1.5 inhibition, whole-cell patch-clamp, currents recorded from MEL-C88 cells
Format: cell-based
Details: Table 1

Compound	Selectivity IC50 (Kv1.5)/IC50 (Kv1.3)
Cc1cc(=O)c2c(OCCCCOc3ccccc3)c3ccc(=O)oc3cc2o1 [Compound 59, 2,6-Dihydro-8-methyl-5-(4-phenoxybutoxy)pyrano[3,2-g][1]benzopyran-2,6-dione]	1
c1ccc(OCCCCOc2cccc3cnccc23)cc1 [Compound 18, 5-(4-Phenoxybutoxy)isoquinoline]	1
